For nine compounds, inhibition results are on record in PubChem BioAssay AID1325 (NMMLSC, 2008).

The chains behind the UniProt entries cited, without tags or fusion partners.
UniProt Q9UNQ0, whole entry: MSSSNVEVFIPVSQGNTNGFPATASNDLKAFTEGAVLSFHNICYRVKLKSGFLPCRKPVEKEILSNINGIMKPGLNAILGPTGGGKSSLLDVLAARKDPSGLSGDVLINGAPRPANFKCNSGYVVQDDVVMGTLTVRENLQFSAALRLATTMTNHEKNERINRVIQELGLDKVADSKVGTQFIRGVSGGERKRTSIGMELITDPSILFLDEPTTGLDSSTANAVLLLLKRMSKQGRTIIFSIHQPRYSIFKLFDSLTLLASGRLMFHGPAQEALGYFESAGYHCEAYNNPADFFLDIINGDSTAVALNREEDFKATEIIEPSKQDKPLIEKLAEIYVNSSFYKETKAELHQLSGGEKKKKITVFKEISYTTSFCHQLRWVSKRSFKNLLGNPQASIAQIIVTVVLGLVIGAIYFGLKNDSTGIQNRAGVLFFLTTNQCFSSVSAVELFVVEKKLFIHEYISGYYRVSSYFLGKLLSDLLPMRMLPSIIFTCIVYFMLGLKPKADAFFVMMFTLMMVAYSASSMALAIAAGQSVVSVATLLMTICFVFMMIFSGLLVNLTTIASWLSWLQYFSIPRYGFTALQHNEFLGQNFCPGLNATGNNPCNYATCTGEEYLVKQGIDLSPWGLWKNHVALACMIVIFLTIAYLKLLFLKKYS

Molecules are shown by their SMILES. The list shows a part of the results, in another mix than the full data. Some of these compounds have results that are not shown, active ones among them. Activity calls are given as the source filed them.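 The calls were made as follows: active = inhibition above 80%; inactive = the rest.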

The target of the test is Broad substrate specificity ATP-binding cassette transporter ABCG2 (Homo sapiens) (UniProt Q9UNQ0). Nature of the test: blockers of JC-1 export by ABCG2 – multiplex with ABCB1, IgMXP3 cells, flow cytometry, primary screen (AID 1325).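 Also: 0% = DMSO and 100% = nicardipine control wells.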 To be noted: JC-1 efflux, at 6.6 µM, hits give high values. For orientation: Flow cytometry measures light scatter and fluorescence of single cells or particles in a stream.
Consider `O=C(NCC1(N2CCCCC2)CCCCC1)c1cc([N+](=O)[O-])ccc1Cl`, for which the inhibition (commonly the change of the read-out against control, counted positive when it falls) is inactive: 7.61%.
Take `CC(C)N1C(=O)CC2(CCN(CCOC(=O)C(O)(c3ccccc3)c3ccccc3)CC2)C1=O`: the inhibition was inactive: -0.26%.
The same measure for `CN(C)C1CCCC1OC(=O)C(O)(c1ccccc1)c1ccccc1` (centres undefined): inactive: 4.07%.
The same measure for `Cc1ccccc1C(=O)NCC1(N2CCCCC2)CCCCC1`: inactive: -1.52%.
Then `CCN1CCCC(OC(=O)C2(O)c3ccccc3C=Cc3ccccc32)C1` (centres undefined), with inactive: 0.58%; and `C=CCN1CCN(CCOC(=O)C(O)(c2ccccc2)c2ccccc2)CC1`, with inactive: 0.64%; and `COc1cccc(C(=O)NCC2(N3CCCCC3)CCCCC2)c1`, with inactive: -0.8%.
`O=C(OC1CN2CCC1CC2)C(CO)(c1ccccc1)c1ccccc1` (centres undefined): the inhibition is inactive: 0.75%.
The same measure for `CN(C)c1cccc(C(=O)NCC2(N(C)C)CCCCC2)c1`: active: 80.5%.
